The values that follow come from patent EP4843571A2, “CONJUGATE OF PROTEIN TRANSLATION INHIBITOR AND USE THEREOF” (dated 2026).

Read-outs that look alike come from different tables or passages of the source.

Holding throughout (test): Inhibition of in vitro proliferation of tumor cells by small molecule compounds (CTG)
In one test the test system is DLD-1. The method, then:
(§1) Objective: To assess the inhibitory effects of the drug compounds on tumor cell proliferation, for example, their inhibitory activity against the in vitro proliferation of NCI-H716, NCI-H1975, NCI-H1373, NCI-H647, NCI-H520, BT474, DLD-1, NCI-N87, NUGC-4, SNU-423, MKN-45, SK-OV-3, OVCAR3, Ls174T, HCC1954, and ES2 tumor cells. The cells were treated with the compounds at different concentrations in vitro. After 5 days of culture, the proliferation of the cells was assessed using the CTG (CellTiter-Glo® Luminescent Cell Viability Assay, Promega, Cat. No. G7558) reagent, and the in vitro activity of the compounds was evaluated based on their IC50 values. • 1. Cell suspension preparation: NCI-H716, NCI-H1975, NCI-H1373, NCI-H647, NCI-H520, BT474, DLD-1, NCI-N87, NUGC-4, SNU-423, MKN-45, SK-OV-3, OVCAR3, Ls174T, HCC1954, and ES2 cells in the log phase were collected, washed with PBS once, and then digested with 2-3 mL of trypsin for 2-3 min. After the cells were digested completely, 10-15 mL of a cell culture medium was added to wash off the digested cells. The cells were centrifuged at 1000 rpm for 5 min, and the supernatant was discarded. Subsequently, the cells were resuspended in 10-20 mL of the cell culture medium to prepare single-cell suspensions. • 2. Cell plating: The BT474, DLD-1, NCI-N87, NUGC-4, SNU-423, MKN-45, SK-OV-3, Ls174T, and HCC1954 single-cell suspensions were each mixed well, and their viable cell density was adjusted to 6 × 10^4 cells/mL with the cell culture medium. After the density adjustment, the resulting cell suspensions were each mixed well and added to 96-well cell culture plates at 50 µL/well. The culture plates were incubated overnight in an incubator (37 °C, 5% CO2). • 3. Compound solution preparation: The compounds were dissolved in DMSO to prepare stock solutions with an initial concentration of 10 mM. For the small molecule compounds, a total of 6 concentrations were prepared: 1000 nM, 333 nM, 111 nM, 37.03 nM, 12.34 nM, and 4.11 nM. • 4. Sample addition: The prepared test samples with different concentrations were added to the culture plates, with two replicate wells set for each sample. The culture plates were incubated in an incubator for 5 days (37 °C, 5% CO2). • 5. Color development: The 96-well cell culture plates were taken out, 50 µL of the CTG reagent was added to each well, and the plates were incubated at room temperature for 10 min. • 6. Plate reading: The 96-well cell culture plates were taken out and placed in a microplate reader, and the chemiluminescence was measured using a microplate reader. • 7. Data analysis: The cell survival rates were calculated according to the formula: (Lumtest drug - Lumblank control)/(Lumsolvent blank control - Lumblank control) × 100%. Sigmoid dose-survival rate curves were plotted using a nonlinear regression model in GraphPad Prism software, and the IC50 values were calculated. Table 7-1. IC50 values for the inhibition of the in vitro proliferation of tumor cells by the small molecule compounds of the present application

In another test the test system is BT474. On the procedure:
as §1

Another test deals with MKN-45. The note with it: read-out: Proliferation inhibitory activity IC50 (nM) MKN-45, MKN-45 cells, 5 days of culture. On the procedure: as §1
The test system of another test is NCI-N87. The note with it: read-out: Proliferation inhibitory activity IC50 (nM) NCI-N87, 5 days of culture. The method, then: as §1
Another test deals with HCC1954. The settings on record: read-out: Proliferation inhibitory activity IC50 (nM) HCC19 54, 5 days of culture. The method, then:
as §1

[1] abbreviates: read-out: Proliferation inhibitory activity IC50 (nM) DLD-1, DLD-1, 5 days of culture.
Where [2] appears, read: read-out: Proliferation inhibitory activity IC50 (nM) BT474, BT474, 5 days of culture.
Where [3] appears, read: read-out: Proliferation inhibitory activity IC50 (nM) DLD-1, DLD-1 cells, 5 days of culture.
Setting [4] is: read-out: Proliferation inhibitory activity IC50 (nM) BT474, BT474 cells, 5 days of culture.

For `CCn1ccc(C(=O)Nc2ccc3c(c2)O[C@@]2(c4ccc(Cl)cc4)[C@H](c4ccccc4)C[C@H](O)[C@@]32O)n1`, the IC50 with DLD-1 (setting [1]) and with BT474 (setting [2]) was greater than 50 nM in each case.
`COc1cc(-c2ncccn2)cc2c1[C@]1(O)[C@H](O)[C@H](C(=O)N(C)OC)[C@@H](c3cccc(N)c3)[C@]1(c1ccc(C#N)cc1)O2` (racemic): in the test on MKN-45, the IC50 was found to be 1.91 nM.
For `COc1cc(-c2ncco2)cc2c1C1(O)C(NC(=O)CO)CC(c3ccccc3)C1(c1ccc(C#N)cc1)O2` (racemic), the IC50 with DLD-1 (setting [3]) is 2.04 nM.
Take `COc1cc(-c2ncco2)cc2c1[C@]1(O)[C@H](O)[C@H](C(=O)N(C)OC)[C@@H](c3ccccc3)[C@]1(c1cccc(N)c1)O2` (racemic): the IC50 in the test on BT474 (setting [4]) came to 4.65 nM.
Take `COc1cc(-c2ncco2)cc2c1[C@]1(O)[C@H](O)[C@H](CN(C)C)[C@@H](c3cccc(N)c3)[C@]1(c1ccc(C#N)cc1)O2` (racemic): the IC50 with MKN-45 stood at 3.12 nM; with NCI-N87, 2.01 nM; in the test on BT474 (setting [4]), 4.44 nM.
Consider `COc1ccc([C@@]23Oc4cc(-c5ncco5)cc(OC)c4[C@]2(O)[C@@H](CN(C)C)C[C@H]3c2cccc(N)c2)cc1` (racemic), for which the IC50 in the test with HCC1954 turned out to be 0.722 nM; with DLD-1 (setting [3]), 2.49 nM.
As for `COc1ccc([C@@]23Oc4cc(-c5ncco5)cc(OC)c4[C@]2(O)[C@@H](CNC(=O)CN(C)C)C[C@H]3c2cccc(N)c2)cc1` (racemic), the IC50 in the test with DLD-1 (setting [3]) turned out to be 11.8 nM.
In the case of `COc1ccc([C@@]23Oc4cc(-c5ncco5)cc(OC)c4[C@]2(O)[C@H](O)C[C@H]3c2cccc(N)c2)cc1` (racemic), the IC50 in the test on BT474 (setting [4]) stood at 7.89 nM.
As to `COc1ccc([C@@]23Oc4cc(-c5ncco5)cc(OC)c4[C@]2(O)[C@H](O)[C@H](CN(C)C)[C@H]3c2cccc(N)c2)cc1` (racemic), the IC50 with HCC1954 came out at 1.88 nM; with BT474 (setting [4]) it was 4.44 nM.
Consider `CCN(CC)C[C@H]1C[C@@H](c2cccc(N)c2)[C@]2(c3ccc(OC)cc3)Oc3cc(-c4ncco4)cc(OC)c3[C@]12O` (single isomer, unassigned), for which the IC50 in the test on DLD-1 (setting [1]) and in the test with BT474 (setting [2]) was less than 10 nM each time.
Consider `COc1cc(-c2ncco2)cc2c1[C@]1(O)[C@H](O)[C@H](C(=O)N(C)OC)[C@@H](c3cccc(N)c3)[C@]1(c1ccc(C#N)cc1)O2` (single isomer, unassigned), for which the IC50 in the test with BT474 (setting [2]) is 1.29 nM.
On the same count and under the same terms, the same measure for `COc1cc(-c2ncco2)cc2c1[C@]1(O)[C@H](O)[C@H](CN(C)C)[C@@H](c3cccc(N)c3)[C@]1(c1ccc(C#N)cc1)O2` (single isomer, unassigned): 1.16 nM.
Regarding `COc1ccc([C@@]23Oc4cc(-c5ncco5)cc(OC)c4[C@]2(O)[C@@H](CN(C)C)C[C@H]3c2cccc(N)c2)cc1` (single isomer, unassigned), the IC50 turned out to be 1.36 nM in the test on DLD-1 (setting [1]) and 1.34 nM in the test on BT474 (setting [2]).
Regarding `COc1ccc([C@@]23Oc4cc(-c5ncco5)cc(OC)c4[C@]2(O)[C@@H](CNC(=O)CN(C)C)C[C@H]3c2cccc(N)c2)cc1` (single isomer, unassigned), the IC50 with DLD-1 (setting [1]) is 3.86 nM; in the test with BT474 (setting [2]), 1.32 nM.
In the case of `COc1ccc([C@@]23Oc4cc(-c5ncco5)cc(OC)c4[C@]2(O)[C@H](O)C[C@H]3c2cccc(N)c2)cc1` (single isomer, unassigned), the IC50 in the test on BT474 (setting [2]) was 4.85 nM.
